Test results from US8309552B2, “Immunomodulating heterocyclic compounds” (Medigene AG, priority 2003, dated 2012).

Sequences of proteins named here, by UniProt entry; tags and fusion partners are left off. Residues count along the entry.
UniProt P33681, 35-242 limits assumed: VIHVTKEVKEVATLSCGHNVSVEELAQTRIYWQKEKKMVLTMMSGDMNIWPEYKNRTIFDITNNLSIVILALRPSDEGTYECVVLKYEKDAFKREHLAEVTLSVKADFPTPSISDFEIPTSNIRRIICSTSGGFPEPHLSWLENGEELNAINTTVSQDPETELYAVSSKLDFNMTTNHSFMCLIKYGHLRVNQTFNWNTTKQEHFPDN

Molecular target: CD80-CD28 interaction (Homo sapiens, UniProt P33681)
Test: Homogenous Time Resolved Fluorescence (HTRF) assay, cell free
Conditions: read-out: Activity (EC50 in the HTRF assay), 4 hours at room temperature
Procedure: Homogenous Time Resolved Fluorescence Assay
The examples described above were tested in a cell free Homogenous Time Resolved Fluorescence (HTRF) assay to determine their activity as inhibitors of the CD80-CD28 interaction.
In the assay, europium and allophycocyanin (APC) are associated with CD28 and CD80 indirectly (through antibody linkers) to form a complex, which brings the europium and APC into close proximity to generate a signal. The complex comprises the following six proteins: fluorescent label 1, linker antibody 1, CD28 fusion protein, CD80 fusion protein, linker antibody 2, and fluorescent label 2. The table below describes these reagents in greater detail.
On formation of the complex, europium and APC are brought into proximity and a signal is generated.
Non-specific interaction was measured by substituting a mouse Fab fragment (C215) for the CD80 mouse Fab fragment fusion protein (1.9 μg/ml). The assay was carried out in black 384 well plates in a final volume of 30 μl. Assay buffer: 50 mM Tris-HCl, 150 mM NaCl pH7.8, containing 0.1% BSA (w/v) added just prior to use.
Compounds were added to the above reagents in a concentration series ranging between 100 μM-1.7 nM. The reaction was incubated for 4 hours at room temperature. Dual measurements were made using a Wallac Victor 1420 Multilabel Counter. First measurement: excitation 340 nm, emission 665 nm, delay 50 μs, window time 200 μs. second measurement: excitation 340 nm, emission 615 nm, delay 50 μs, window time 200 μs. Counts were automatically corrected for fluorescence crossover, quenching and background. The EC50 activities of compounds tested are recorded as: EC50:*=>10 μM,**=1-10 μM,***=<1 μM.

[1] = cell-free HTRF, concentration series 100 μM-1.7 nM
[2] = cell free HTRF assay, concentration series 100 μM-1.7 nM

EC50 [1] [nM]	EC50 [2] [nM]	Compound	other results
> 10000	–	O=C(NC(c1ccccc1)C(O)c1ccccc1)c1ccc(-n2[nH]c3c(nnc4c(F)cccc43)c2=O)cc1 (stereo not drawn)	–
–	< 1000	CCCNCCNC(=O)c1ccc(-n2[nH]c3c(nnc4ccc(F)cc43)c2=O)cc1	–
–	< 1000	O=C(NCC(F)(F)C(F)(F)F)c1ccc(-n2[nH]c3c(nnc4c(F)cccc43)c2=O)cc1	–
< 1000	–	O=C(NCCC1CC(F)(F)CCN1)c1ccc(-n2[nH]c3c(nnc4c(F)cccc43)c2=O)cc1 (stereo not drawn)	–
–	–	CCOC(=O)CCCNC(=O)c1ccc(-n2[nH]c3c(nnc4ccccc43)c2=O)cc1	EC50 (cell-free HTRF, compound concentration series 100 μM-1.7 nM): > 10000 nM
–	1000 to 10000	Cc1cc(C)cc(CN2CCC(NC(=O)c3ccc(-n4[nH]c5c(nnc6c(F)cccc65)c4=O)cc3)CC2)c1	–
< 1000	–	O=C(NCCCNC1CCCCC1)c1ccc(-n2[nH]c3c(nnc4ccc(Cl)cc43)c2=O)cc1	–
–	< 1000	O=C(NCCC(F)(F)F)c1ccc(-n2[nH]c3c(nnc4c(F)cccc43)c2=O)cc1	–
–	< 1000	O=C(NCCCCN1CCCC1)c1ccc(-n2[nH]c3c(nnc4c(F)cccc43)c2=O)cc1 [Example 6, 4-(6-fluoro-3-oxo-1,3-dihydro-2H-pyrazolo[4,3-c]cinnolin-2-yl)-N-(pyrrolidin-1-yl-butyl)benzamide]	–
1000 to 10000	–	O=C(NCCC(F)=C(F)F)c1ccc(-n2[nH]c3c(nnc4c(F)cccc43)c2=O)cc1	–
–	> 10000	O=C(Nc1ccncc1)c1ccc(-n2[nH]c3c(nnc4ccccc43)c2=O)cc1	–
–	< 1000	CN1C2CCC1CC(NC(=O)c1ccc(-n3[nH]c4c(nnc5ccccc54)c3=O)cc1)C2 (stereo not drawn)	–
1000 to 10000	–	N#CC(NC(=O)c1ccc(-n2[nH]c3c(nnc4c(F)cccc43)c2=O)cc1)c1ccccc1 (stereo not drawn)	–
–	1000 to 10000	Cc1cccc(CCNC(=O)c2ccc(-n3[nH]c4c(nnc5c(F)cccc54)c3=O)cc2)c1	–
< 1000	–	CC(C)(CN)CNC(=O)c1ccc(-n2[nH]c3c(nnc4c(F)cccc43)c2=O)cc1	–
–	< 1000	O=C(NCCCNC1CCCCC1)c1ccc(-n2[nH]c3c(nnc4ccc(F)cc43)c2=O)cc1	–
–	< 1000	CNCCCNC(=O)Nc1ccc(-n2[nH]c3c(nnc4ccccc43)c2=O)cc1	–
< 1000	–	O=C(NCC(F)F)c1ccc(-n2[nH]c3c(nnc4ccc(F)cc43)c2=O)cc1	–
–	< 1000	CCN(CC)CCCCNC(=O)c1ccc(-n2[nH]c3c(nnc4c(F)cccc43)c2=O)cc1	–
–	< 1000	O=C(NCCCCNC1CCCCC1)c1ccc(-n2[nH]c3c(nnc4c(F)cccc43)c2=O)cc1	–
1000 to 10000	–	O=C(c1ccc(-n2[nH]c3c(nnc4c(F)cccc43)c2=O)cc1)N1CCCCCCC1	–

Like-named read-outs stand apart in the source and are kept apart here.
